Results taken from paper PMC11779861 (Scientific Reports, 2025).
Read-outs that look alike come from different tables or passages of the source.

Tested on: Human Induced Pluripotent Stem Cell (hiPSC)-Derived Cardiomyocytes
Conditions: 3 nM

- early after depolarization (EAD) events (30 min): 5/8
- early after depolarization (EAD) events (24 h): 8/8
- depolarization (EAD) events (48 h): 1/8
Compound: CN(CCOc1ccc(NS(C)(=O)=O)cc1)CCc1ccc(NS(C)(=O)=O)cc1 [Dofetilide]
